Results as given in ChEMBL document CHEMBL5137051 (Eur J Med Chem, 2022).

Species on record: Homo sapiens
Assay: Selectivity index, ratio of IC50 for wild-type EGFR (unknown origin) to IC50 for EGFR L858R/T790M/C797S mutant (unknown origin)

Compound	Ratio IC50
COc1cc(N(C)CCN(C)C)c(NC(=O)c2ccncn2)cc1Nc1nc(-c2cn(C)c3ccccc23)c2cccnc2n1	< 0.72
COc1cc(N(C)CCN(C)C)c(NC(=O)c2ncccn2)cc1Nc1nccc(-c2cn(C)c3ccccc23)n1	< 0.29
COc1cc(N(C)CCN(C)C)c(NC(=O)c2cnccn2)cc1Nc1nccc(-c2cn(C)c3ccccc23)n1	< 0.45
COc1cc(N(C)CCN(C)C)c(NC(=O)c2ccncn2)cc1Nc1nccc(-c2cn(C)c3ccccc23)n1	0.12
COc1cc(N(C)CCN(C)C)c(NC(=O)c2ccncn2)cc1Nc1nccc(-c2cn(CCCO)c3ccccc23)n1	3.7
COc1cc(N(C)CCN(C)C)c(NC(=O)c2ccnc(Cl)c2)cc1Nc1nccc(-c2cn(C)c3ccccc23)n1	> 1.2
COc1cc(N(C)CCN(C)C)c(NC(=O)c2ccnc(Cl)c2)cc1Nc1nccc(-c2cn(CCCO)c3ccccc23)n1	5.4
